According to patent US7276233B2, “Methods of treating neoplasia with combinations of target cell-specific adenovirus and chemotherapy” (priority 2001, dated 2007):

Columns and labels:
[1] = system: Hep3B hepatoma xenografts; test: Hep3B xenograft, CV790 or CV890 with doxorubicin (Example 5); format: in vivo, nude mice; settings: virus 1×10^11 particles i.v. alone or doxorubicin 10 mg/kg alone, time printed as week 6 / 4 weeks after treatment
Description: CV790 is an AFP producing hepatocellular carcinoma specific adenovirus, with E1A and E1B under the control of an identical AFP promoter (827 bp) and enhancer with an E3 region. The CV890 adenovirus construct is also a hepatoma or liver-specific adenoviral mutant with the E1A and E1B genes under transcriptional control of 827 bp AFP promoter, wherein E1B is under translational control of EMCV IRES and having an intact E3 region. The structure of CV890 therefore reads as AFP/E1A, IRES/E1B, E2, E3, E4. In vivo studies of the efficacy of combinations of CV790 and doxorubicin and CV890 and doxorubicin were performed according to the protocols described in detail in Example 4, with minor alterations which are described below.
Xenografts in the study of CV790 and CV890 combined with chemotherapeutic agents utilized liver carcinoma Hep3B cells, instead of LNCaP prostate carcinoma. Virus, CV790 or CV890, was administered by a single intravenous injection of 1×10^11 particles through the tail veins of the nude mice. One day after virus delivery, a single dose of doxorubicin was given to each animal by i.p. injection. The doxorubicin dose was 10 mg/kg for both doxorubicin alone and doxorubicin combined with virus treatments. Tumor volume was measured once a week for six weeks according to the protocol in Example 4.

Hep3B cells = test: Cell viability assay (MTT) and isobologram, CV890 with doxorubicin; settings: doxorubicin at 10 ng/ml alone

COc1cccc2c1C(=O)c1c(O)c3c(c(O)c1C2=O)C[C@@](O)(C(=O)CO)C[C@@H]3O[C@H]1C[C@H](N)[C@H](O)[C@H](C)O1 [doxorubicin]
relative tumor volume ([1]; CV790 study): 280% | relative tumor volume ([1]; CV890 study): 500% | cytotoxicity (Hep3B cells): did not generate cytotoxicity
